We go through one substance from US20060067959A1, “Compositions and methods for treatment of solar damage” (priority 2004, published 2006).

The series relates to NIH 3T3 cells. On the procedure:
NIH 3T3 cells were used in these studies. Cells were cultured in 24-well plates at a density of […] in 10% FBS/DMEM overnight. […] Cells were incubated for 72 hours before cell counting and morphological studies.

Consider proanthocyanidin, for which the “cytotoxicity (FIG. 1 legend)” value was “lack of cytotoxicity” and the “toxicity relative to glutaraldehyde (less toxic)” value is “about 120 times”.
